# Ab-14 heavy chain CDR variants: yeast mating affinities

Source: Engelhart et al. 2022 (doi:10.1038/s41597-022-01779-4), MIT Lincoln Laboratory and A-Alpha Bio; data file from the FLAb repository.

Antigen: PDVDLGDISGINAS, a 14-residue peptide of the SARS-CoV-2 spike HR2 region.

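The parent was found by panning a naive human phage display library on the peptide. AAYL49 was designed without a model: most single CDR substitutions and a random sample of double and triple ones. The scFvs were displayed on barcoded MATa yeast, the peptide on MATalpha yeast. After mating in shaken culture at 30 °C for 16 h, diploids were selected and their barcode pairs sequenced. Each replicate has its own calibration line, from reference interactions of the BCL2 family. Mating was done three times.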

Parent scFv Ab-14: VH joined to VL by three GGGGS repeats. Changes lie in the heavy chain CDRs alone.
VH: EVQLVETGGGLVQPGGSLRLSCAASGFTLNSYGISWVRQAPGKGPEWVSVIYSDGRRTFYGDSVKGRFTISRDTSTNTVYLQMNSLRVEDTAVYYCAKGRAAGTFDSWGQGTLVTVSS
VL: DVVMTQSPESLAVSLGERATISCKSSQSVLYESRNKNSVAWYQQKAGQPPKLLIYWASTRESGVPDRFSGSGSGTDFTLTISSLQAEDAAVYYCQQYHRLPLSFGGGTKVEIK

Each variant's VH is given in full. The read-out is the apparent dissociation constant on a log10 scale (nM): the lower, the stronger. The mean shown is taken over the replicates in which the pair was detected. "ND" means that the variant was in the library but no mating with the target was seen in that replicate; the authors take this as a sign of poor binding, and no number exists.

| VH | log10 Kd (nM) by replicate | mean log10 Kd (nM) | control signals |
|---|---|---|---|
| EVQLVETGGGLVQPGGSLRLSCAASGFTLNSYGISWVRQAPGKGPEWVSVIYSCGIRTFGGDSVKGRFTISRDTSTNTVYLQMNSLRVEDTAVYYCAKGRAAGTFDSWGQGTLVTVSS | ND / ND / 4.51 | 4.51 | 3 of 9 (4.00) |
| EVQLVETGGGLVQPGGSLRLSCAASGFTLNSYGISWVRQAPGKGPEWVSKVYSDGRRTDYGDSVKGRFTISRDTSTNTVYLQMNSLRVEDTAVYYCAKGRAAGTFDSWGQGTLVTVSS | ND / ND / ND | ND | 3 of 9 (3.96) |
| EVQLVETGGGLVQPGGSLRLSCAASGFTLNSYGISWVRQAPGKGPEWVSVIYSDGRRTFYGTSYKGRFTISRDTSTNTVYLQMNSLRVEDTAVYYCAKGRAAGTFWSWGQGTLVTVSS | ND / ND / ND | ND | 0 of 9 |
| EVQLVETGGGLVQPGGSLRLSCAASGFTLNQYGSSWVRQAPGKGPEWVSVIYSDKRRTFYGDSVKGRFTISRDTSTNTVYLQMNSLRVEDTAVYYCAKGRAAGTFDSWGQGTLVTVSS | ND / ND / ND | ND | 4 of 9 (4.09) |
| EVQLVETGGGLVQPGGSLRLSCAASGFTLNSYGISWVRQAPGKGPEWVSVIYSDGRRTFYCSSVKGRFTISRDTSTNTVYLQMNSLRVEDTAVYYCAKGRAAGTFDLWGQGTLVTVSS | ND / ND / 3.10 | 3.10 | 0 of 9 |
| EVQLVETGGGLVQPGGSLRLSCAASGFTLNSYGICWVRQAPGKGPEWVSVIYSDGVRTFYGDSVKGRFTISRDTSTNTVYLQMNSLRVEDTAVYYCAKGRAAGVFDSWGQGTLVTVSS | ND / ND / ND | ND | 0 of 9 |
| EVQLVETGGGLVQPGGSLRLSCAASGFTLNSYGGSWVRQAPGKGPEWVSVIYSDGDRTNYGDSVKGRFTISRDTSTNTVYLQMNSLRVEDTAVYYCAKGRAAGTFDSWGQGTLVTVSS | ND / ND / ND | ND | 1 of 9 (4.72) |
| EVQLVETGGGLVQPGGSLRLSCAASGFTWNSYGIRWVRQAPGKGPEWVSVIYSDGRRTFYGDSVKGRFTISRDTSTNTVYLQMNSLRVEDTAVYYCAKGRARGTFDSWGQGTLVTVSS | ND / ND / ND | ND | 0 of 9 |
| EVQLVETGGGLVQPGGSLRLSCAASQFTLNSYGWSWVRQAPGKGPEWVSVIYSDGRRTFYGDSTKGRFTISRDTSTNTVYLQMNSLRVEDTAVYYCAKGRAAGTFDSWGQGTLVTVSS | ND / 3.46 / ND | 3.46 | 0 of 9 |
| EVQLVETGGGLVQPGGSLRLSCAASGFTLNSYGISWVRQAPGKGPEWVSVIYSMSRRTFYGDSVKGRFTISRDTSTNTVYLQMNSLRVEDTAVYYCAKGRAAGTFWSWGQGTLVTVSS | ND / ND / ND | ND | 0 of 9 |
| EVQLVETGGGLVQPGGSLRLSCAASGFTLNCYGISWVRQAPGKGPEWVSVIYSDGRRTMYGDSVKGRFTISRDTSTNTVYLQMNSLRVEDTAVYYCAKGRAAGTIDSWGQGTLVTVSS | ND / ND / ND | ND | 0 of 9 |
| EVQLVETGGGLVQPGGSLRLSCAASGFTLASYGISWVRQAPGKGPEWVSVIYSDGRRTFYGDSVKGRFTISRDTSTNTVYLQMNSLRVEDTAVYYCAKGGAAGIFDSWGQGTLVTVSS | 1.37 / 3.55 / 1.11 | 2.01 | 0 of 9 |
| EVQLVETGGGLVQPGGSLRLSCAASGFTLNSYGASWVRQAPGKGPEWVSVIYSDGRRTFYGDSEKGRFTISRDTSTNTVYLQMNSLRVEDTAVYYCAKGRAAGHFDSWGQGTLVTVSS | ND / 4.05 / ND | 4.05 | 1 of 9 (3.95) |
| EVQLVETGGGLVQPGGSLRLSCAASGFTLNSYLTSWVRQAPGKGPEWVSVIYSDGRRTFYGDSVKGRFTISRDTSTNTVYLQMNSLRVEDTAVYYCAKGRAAGTFTSWGQGTLVTVSS | ND / ND / ND | ND | 0 of 9 |
| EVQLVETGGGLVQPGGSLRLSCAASDFTLNSYGISWVRQAPGKGPEWVSVIYSDGRRTFYGDSVKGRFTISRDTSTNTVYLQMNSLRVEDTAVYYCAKGRAAPTFDSWGQGTLVTVSS | 2.26 / 2.37 / 3.25 | 2.63 | 5 of 9 (4.23) |
| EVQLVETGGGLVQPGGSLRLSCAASGFTLHSYGISWVRQAPGKGPEWVSVIYSDGRQMFYGDSVKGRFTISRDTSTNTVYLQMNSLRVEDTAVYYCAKGRAAGTFDSWGQGTLVTVSS | ND / ND / ND | ND | 0 of 9 |
| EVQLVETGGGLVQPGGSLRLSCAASGFTLNSYGRSWVRQAPGKGPEWVSVIYSDGRRTFYGDSVKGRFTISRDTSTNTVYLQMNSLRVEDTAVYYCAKGRAAGTFDSWGQGTLVTVSS | ND / 4.66 / 5.61 | 5.14 | 2 of 9 (4.53) |
| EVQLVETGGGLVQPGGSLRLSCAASGFTLNSYWISWVRQAPGKGPEWVSVIYSDGRRTHYGDSVKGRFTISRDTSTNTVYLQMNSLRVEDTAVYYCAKGRAAGTFNSWGQGTLVTVSS | ND / ND / ND | ND | 1 of 9 (3.94) |
| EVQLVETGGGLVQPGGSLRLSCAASGFTLNSYGISWVRQAPGKGPEWVSVIYSDGRRTSYGDSVKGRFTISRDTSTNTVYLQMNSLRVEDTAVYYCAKGRAAGTFGEWGQGTLVTVSS | 1.69 / 1.91 / 1.94 | 1.85 | 4 of 9 (4.81) |
| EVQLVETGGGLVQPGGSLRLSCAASGCTLNSYGISWVRQAPGKGPEWVSVIYLDGRRTFYGDSVKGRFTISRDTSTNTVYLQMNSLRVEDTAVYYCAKGRADGTFDSWGQGTLVTVSS | ND / 3.37 / ND | 3.37 | 1 of 9 (4.04) |
| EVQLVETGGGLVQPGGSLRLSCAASGFTLNSYGISWVRQAPGKGPEWVSVIYSPGRRTFNGDSVKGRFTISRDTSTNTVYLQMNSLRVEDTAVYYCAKGRAAKTFDSWGQGTLVTVSS | ND / ND / ND | ND | 0 of 9 |

The opening 2 entries, copied out:

| VH | log10 Kd (nM) by replicate | mean log10 Kd (nM) | control signals |
|---|---|---|---|
| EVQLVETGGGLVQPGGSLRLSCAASGFTLNSYGISWVRQAPGKGPEWVSVIYSCGIRTFGGDSVKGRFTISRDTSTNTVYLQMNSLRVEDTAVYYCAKGRAAGTFDSWGQGTLVTVSS | ND / ND / 4.51 | 4.51 | 3 of 9 (4.00) |
| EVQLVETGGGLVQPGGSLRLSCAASGFTLNSYGISWVRQAPGKGPEWVSKVYSDGRRTDYGDSVKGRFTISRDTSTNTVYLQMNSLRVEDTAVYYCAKGRAAGTFDSWGQGTLVTVSS | ND / ND / ND | ND | 3 of 9 (3.96) |

Background: pairings of library AAYL49 with three empty control strains gave a value in 15% of cases (median 4.06, 5th percentile 2.83). Values in that range, when seen in few replicates, are hard to tell from nonspecific mating. The control count says in how many pairings with the empty strains this scFv gave a signal, with their mean in brackets.